Target: T1, Peroxisome proliferator-activated receptor delta (Homo sapiens, UniProt Q03181)
T1 sequence (Q03181 whole entry): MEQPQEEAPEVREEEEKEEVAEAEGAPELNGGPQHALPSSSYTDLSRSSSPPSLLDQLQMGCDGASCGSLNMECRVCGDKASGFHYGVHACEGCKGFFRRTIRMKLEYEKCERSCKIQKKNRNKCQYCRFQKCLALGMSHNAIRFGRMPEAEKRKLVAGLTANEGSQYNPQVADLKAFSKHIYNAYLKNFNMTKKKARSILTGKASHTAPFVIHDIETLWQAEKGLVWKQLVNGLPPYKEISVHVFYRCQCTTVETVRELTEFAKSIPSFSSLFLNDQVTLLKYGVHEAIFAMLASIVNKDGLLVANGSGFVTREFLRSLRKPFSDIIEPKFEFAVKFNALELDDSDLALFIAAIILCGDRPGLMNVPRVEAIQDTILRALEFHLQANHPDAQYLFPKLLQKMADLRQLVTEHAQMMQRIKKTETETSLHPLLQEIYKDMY

Structure (SMILES) | EC50 [nM]
C/C(=C\COc1ccc(C)cc1CN(C)C(=O)c1ccc(-c2ccco2)cc1)CCC(=O)O | 22.6
C/C(=C\COc1ccccc1CN(C)C(=O)c1ccc(-c2ccco2)c(Cl)c1)CCC(=O)O | 1.59
C/C(=C\COc1ccccc1CN(C)C(=O)c1ccc(-c2ccco2)c(F)c1)CCC(=O)O | 1.93
C/C(=C\COc1ccc(F)cc1CN(C)C(=O)c1ccc(-c2ccco2)cc1)CCC(=O)O | 5.51
